From US5512549A, “Glucagon-like insulinotropic peptide analogs, compositions, and methods of use” (Eli Lilly and Company, priority 1994, dated 1996)

Biological target: T1, rat GLP-1 receptor (Rattus norvegicus, UniProt P32301)
T1 construct: expressed in transfected cells; host or cells: CHO DXB-11 (Chinese hamster ovary) cells, used as a membrane preparation
T1 sequence (P32301 22-463): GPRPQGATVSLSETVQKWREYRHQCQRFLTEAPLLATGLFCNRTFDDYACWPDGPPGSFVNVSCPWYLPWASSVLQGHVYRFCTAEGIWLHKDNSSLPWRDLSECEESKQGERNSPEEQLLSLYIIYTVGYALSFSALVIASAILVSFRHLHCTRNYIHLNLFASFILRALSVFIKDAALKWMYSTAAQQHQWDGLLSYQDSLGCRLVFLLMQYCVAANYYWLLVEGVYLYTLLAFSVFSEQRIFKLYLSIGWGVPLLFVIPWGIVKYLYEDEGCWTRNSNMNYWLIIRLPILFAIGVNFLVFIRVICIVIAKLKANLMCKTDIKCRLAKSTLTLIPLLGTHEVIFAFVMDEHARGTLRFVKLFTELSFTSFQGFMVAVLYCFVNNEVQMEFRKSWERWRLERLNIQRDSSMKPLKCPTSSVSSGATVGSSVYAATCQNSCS
Test: cAMP Assay (in vitro receptor binding assay) on membrane preparation
Assay type: biochemical
Conditions: cAMP production, CHO membranes expressing rat GLP-1 receptor; mean ± spread

**Q.** Which “% Relative Potency” value does the source give for GLP-1(7-37)OH here?
**A.** The value was 100.0 ± 18%.
